The values below are quoted from earlier work in patent publication US20060276412A1, “METHODS AND COMPOSITIONS FOR MANAGING PSYCHOTIC DISORDERS” (priority 2005, published 2006).

For series [1] the following is noted: at one year, treated patients, one study; cited from earlier work.
Series [2] has as its system cholinergic muscarinic receptors. The following applies: cited from earlier work.

On to `Cc1cc2c(s1)Nc1ccccc1N=C2N1CCN(C)CC1` [olanzapine], for which the average weight gain in series [1] is 12 kg. Also, in series [2], the “affinity for cholinergic muscarinic receptors” value is given as “lower affinity”.
